One experiment concerns the target ATM (Homo sapiens (Human), UniProt Q13315). Description: biochemical. An excerpt: Assay a): ATM Biochemical Potency
Data was collected by Caliper.

By UniProt entry, the sequences of proteins in these tests, tags left out. Where a name states a change or a piece, a line headed by the entry shows the natural chain unless it says otherwise.
UniProt Q13315: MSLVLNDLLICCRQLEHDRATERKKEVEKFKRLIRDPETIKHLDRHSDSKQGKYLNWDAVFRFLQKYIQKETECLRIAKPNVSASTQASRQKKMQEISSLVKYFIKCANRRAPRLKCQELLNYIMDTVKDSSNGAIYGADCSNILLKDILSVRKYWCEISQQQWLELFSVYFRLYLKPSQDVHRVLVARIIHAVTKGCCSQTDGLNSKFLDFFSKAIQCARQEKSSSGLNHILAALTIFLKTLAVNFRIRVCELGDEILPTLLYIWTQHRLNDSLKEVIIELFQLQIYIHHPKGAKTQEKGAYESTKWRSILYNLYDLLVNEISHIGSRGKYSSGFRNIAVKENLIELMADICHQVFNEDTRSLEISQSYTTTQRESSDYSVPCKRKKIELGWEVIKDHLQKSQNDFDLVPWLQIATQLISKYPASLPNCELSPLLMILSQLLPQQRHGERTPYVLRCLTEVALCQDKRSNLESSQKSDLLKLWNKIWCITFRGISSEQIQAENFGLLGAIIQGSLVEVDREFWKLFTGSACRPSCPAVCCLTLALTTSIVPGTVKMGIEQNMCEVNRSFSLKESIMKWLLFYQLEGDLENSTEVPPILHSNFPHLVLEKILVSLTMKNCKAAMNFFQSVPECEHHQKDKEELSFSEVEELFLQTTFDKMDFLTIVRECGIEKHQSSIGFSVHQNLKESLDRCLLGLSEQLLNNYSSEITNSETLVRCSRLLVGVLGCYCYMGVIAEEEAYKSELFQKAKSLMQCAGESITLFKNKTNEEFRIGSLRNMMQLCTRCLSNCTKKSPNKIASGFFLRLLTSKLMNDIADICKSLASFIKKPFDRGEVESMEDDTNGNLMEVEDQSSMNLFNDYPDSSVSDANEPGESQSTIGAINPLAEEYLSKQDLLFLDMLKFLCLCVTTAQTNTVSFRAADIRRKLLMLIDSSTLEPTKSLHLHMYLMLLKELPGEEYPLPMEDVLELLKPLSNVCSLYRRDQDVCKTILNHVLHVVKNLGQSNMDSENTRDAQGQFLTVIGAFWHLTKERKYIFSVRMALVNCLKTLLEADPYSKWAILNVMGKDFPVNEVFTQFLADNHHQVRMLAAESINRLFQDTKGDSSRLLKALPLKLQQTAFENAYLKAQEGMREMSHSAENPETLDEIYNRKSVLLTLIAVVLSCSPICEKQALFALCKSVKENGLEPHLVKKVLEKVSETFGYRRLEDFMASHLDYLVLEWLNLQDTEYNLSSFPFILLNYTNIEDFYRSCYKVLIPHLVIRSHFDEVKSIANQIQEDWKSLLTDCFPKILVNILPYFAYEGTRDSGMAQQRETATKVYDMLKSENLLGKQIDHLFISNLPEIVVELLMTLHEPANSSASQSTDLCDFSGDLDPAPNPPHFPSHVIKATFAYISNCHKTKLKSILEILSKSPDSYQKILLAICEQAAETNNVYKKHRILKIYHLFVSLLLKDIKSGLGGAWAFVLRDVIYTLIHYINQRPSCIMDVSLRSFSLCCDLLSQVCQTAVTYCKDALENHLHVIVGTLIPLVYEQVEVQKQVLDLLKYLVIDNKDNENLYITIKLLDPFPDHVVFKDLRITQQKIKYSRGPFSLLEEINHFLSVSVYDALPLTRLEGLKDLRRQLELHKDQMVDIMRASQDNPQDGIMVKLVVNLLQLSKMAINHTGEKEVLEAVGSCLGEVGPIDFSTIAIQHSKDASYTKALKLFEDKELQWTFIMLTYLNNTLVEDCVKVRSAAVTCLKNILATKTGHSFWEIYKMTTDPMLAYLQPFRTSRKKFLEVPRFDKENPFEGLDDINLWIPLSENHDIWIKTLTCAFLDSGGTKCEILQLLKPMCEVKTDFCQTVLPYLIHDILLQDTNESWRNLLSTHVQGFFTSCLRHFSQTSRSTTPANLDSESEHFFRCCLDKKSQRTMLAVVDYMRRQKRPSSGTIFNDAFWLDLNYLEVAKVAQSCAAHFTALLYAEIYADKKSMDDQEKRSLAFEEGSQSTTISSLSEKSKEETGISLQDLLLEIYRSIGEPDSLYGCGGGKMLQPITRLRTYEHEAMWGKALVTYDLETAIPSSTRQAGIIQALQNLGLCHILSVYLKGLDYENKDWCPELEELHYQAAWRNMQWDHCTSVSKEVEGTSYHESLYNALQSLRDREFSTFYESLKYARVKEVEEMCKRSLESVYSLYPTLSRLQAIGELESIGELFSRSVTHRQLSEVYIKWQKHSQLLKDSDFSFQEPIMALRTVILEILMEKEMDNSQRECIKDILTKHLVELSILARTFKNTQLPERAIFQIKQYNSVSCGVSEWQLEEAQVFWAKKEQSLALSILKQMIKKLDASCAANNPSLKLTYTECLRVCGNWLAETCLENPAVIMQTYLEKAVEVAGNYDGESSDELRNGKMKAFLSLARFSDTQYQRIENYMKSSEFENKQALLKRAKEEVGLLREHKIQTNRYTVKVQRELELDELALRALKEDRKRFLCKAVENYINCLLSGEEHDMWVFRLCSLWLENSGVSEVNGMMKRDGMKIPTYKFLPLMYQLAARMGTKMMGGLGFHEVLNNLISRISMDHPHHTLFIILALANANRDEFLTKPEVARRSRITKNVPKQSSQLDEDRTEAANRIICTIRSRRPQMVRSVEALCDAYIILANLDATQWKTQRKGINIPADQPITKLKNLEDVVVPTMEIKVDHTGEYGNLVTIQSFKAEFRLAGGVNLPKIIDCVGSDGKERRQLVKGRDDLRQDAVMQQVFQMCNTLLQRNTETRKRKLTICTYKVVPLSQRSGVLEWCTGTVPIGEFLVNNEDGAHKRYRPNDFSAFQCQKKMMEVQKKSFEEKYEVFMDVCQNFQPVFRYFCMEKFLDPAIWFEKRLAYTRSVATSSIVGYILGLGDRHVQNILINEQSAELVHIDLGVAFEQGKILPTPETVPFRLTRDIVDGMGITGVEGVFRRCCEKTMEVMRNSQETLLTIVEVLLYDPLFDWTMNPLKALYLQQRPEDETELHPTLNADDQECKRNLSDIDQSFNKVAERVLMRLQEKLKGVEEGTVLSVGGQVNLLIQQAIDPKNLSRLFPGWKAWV

Experiment [1] deals with ATM (phospho-ATM Ser1981) in SN38 treated HT-29 cells (Homo sapiens (Human), UniProt Q13315). Description: cell-based. The protocol:
Assay g): ATM SN-38 HT-29 Cellular Potency
SN38 causes single strand DNA breaks (SSBs) which are converted to double strand breaks (DSBs) during replication. ATM plays role of repairing DSBs. Inhibition of ATM was evaluated in SN38 treated HT-29 cells (ATCC, Cat #HTB-38) by high-Content Imaging System
The graphical views were then generated using Prism 7.0 (Graphpad).

The subject of the next experiment is FaDu xenograft. The experiment is described as follows: FaDu xenograft model, radiation combination (Assay i). The format is in vivo, mouse. The following applies: combo with IR. The protocol: Assay i): FaDu Xenograft Model
Cell culture: FaDu tumor cells were cultured in an EMEM medium containing inactivated 10% fetal bovine serum, 100 U/ml penicillin and 100 μg/ml streptomycin in a 37° C., 5% CO2 incubator.
Inoculation and grouping: Xenografts were established by implantation of 100 μl of Fadu tumor cell suspension (5×10^6 cells/mouse) subcutaneously into the right flank of female immune-compromised BALB/c nude mice at least 6 weeks of age. Tumours were measured in two dimensions with calipers and the tumour volume was calculated using the following formula: tumor volume=(length×width^2)×0.5. When the average tumor volume reached 100 to 150 mm^3, tumour-bearing mice were randomized into treatment groups.
Treatment and tumor assessment: Animals received 3 to 6 cycles of treatment with compounds combined with radiation therapy. Each cycle included 5 consecutive treatment day plus 2 days' rest. Ionizing radiation was administered using a fractionated schedule of 2 Gy per day administered over 5 consecutive days (total radiation dose=10 Gy/cycle). Compound was given orally 10 minutes before irradiation. The tumour volume and body weight of the mice were measured twice weekly.
Statistical Analysis: The One-Way ANOVA test was used for statistical analysis of tumor volume between groups, and p<0.05 was considered as a significant difference.

For experiment [2], the system named is phosp-KAP1 in MCF-7 cells. Description: phosp-KAP1 MCF-7 cellular potency assay (Assay f). It counts as cell-based. Particulars: Homo sapiens, MCF7, etoposide. The protocol:
Assay f): phosp-KAP1 MCF-7 Cellular Potency
MCF-7 cells were seeded to a 384-well cell-culture plate, 25 μl/well which were incubated at 37° C. and 5% CO2 for 24 hr. Test compounds were added to the 384-well plates. Etoposide at final concentration of 100 μM was then added to each well except Vehicle control wells, which were incubated at 37° C. and 5% CO2 for 1 hour. After medium removal, cells were fixed by the addition of 25 μl/well of 8% paraformaldehyde in PBSA and incubated for 20 minutes at room temperature. After the plates were rinsed 3 times with PBSA, 50 ul permeabilization buffer (0.1% Triton X-100 in PBS) was added and the plates were incubated for 20 minutes at room temperature. After the plates were rinsed with PBSA, block the cells by adding 50 μl of Odyssey Blocking Buffer in 384-well plate and then incubate for 1.5 hours at room temperature. Remove blocking buffer by Plate washer (BioTek ELx405 select CW). […] The plates were rinsed 5 times with PBST (0.1% Tween-20 in PBS).
• 1) Fluorescence intensity (FI) was detected for each well. • 2) % inhibition is calculated as follow: […]

SMILES strings stand for the structures. Like-named read-outs stand apart in the source and are kept apart here.

As for `C[C@@H](OCCN1CCC2(CC2)C1)c1ccc(-c2ccc3nnc4c(c3c2)n(C2CCOCC2)c(=O)n4C)cn1` [Example 102, (R)-8-(6-(1-(2-(5-azaspiro[2.4]heptan-5-yl)ethoxy)ethyl)pyridin-3-yl)-3-methyl-1-(tetrahydro-2H-pyran-4-yl)-1H-imidazo[4,5-c]cinnolin-2(3H)-one], the results for the IC50 (at ATM; in experiment [1]; in experiment [2]) were 0.0055 µM, 0.017 µM and 0.012 µM, respectively. Also, the “Inhibition (% TGI) Combo” value in the experiment with FaDu xenograft (total IR 30 Gy (3 cycles), 20 mg/kg PO. BID) was determined as 83.5 ± 2.21 % TGI; in the experiment on FaDu xenograft (total IR 30 Gy (3 cycles), 25 mg/kg PO. BID), 83.0 ± 3.03 % TGI; with FaDu xenograft (total IR 30 Gy (3 cycles), 40 mg/kg PO. BID), 93.7 ± 1.04 % TGI; in the experiment on FaDu xenograft (total IR 30 Gy (3 cycles), 60 mg/kg PO. BID) it was 95.5 ± 1.63 % TGI; with FaDu xenograft (total IR 40 Gy (4 cycles), 50 mg/kg PO. BID), 93.4 ± 1.75 % TGI; in the experiment with FaDu xenograft (total IR 40 Gy (4 cycles), 75 mg/kg PO. BID), 96.4 ± 0.91 % TGI.

For the molecule `C[C@@H](OCCN1CCC(OC(F)(F)F)C1)c1ccc(-c2ccc3nnc4c(c3c2)n(C2CCOCC2)c(=O)n4C)cn1` (stereo partly drawn) [Example 106, 3-methyl-1-(tetrahydro-2H-pyran-4-yl)-8-(6-((1R)-1-(2-(3-(trifluoromethoxy)pyrrolidin-1-yl)ethoxy)ethyl)pyridin-3-yl)-1H-imidazo[4,5-c]cinnolin-2(3H)-one], on ATM (read-out: ATM IC50), the IC50 – broadly, the concentration that inhibits the measured activity by half – was 0.0042 µM.

In the case of `C[C@@H](OCCN1CCC2(CC1)CC2)c1ccc(-c2ccc3nnc4c(c3c2)n(C2CCOCC2)c(=O)n4C)cn1` [Example 107, (R)-8-(6-(1-(2-(6-azaspiro[2.5]octan-6-yl)ethoxy)ethyl)pyridin-3-yl)-3-methyl-1-(tetrahydro-2H-pyran-4-yl)-1H-imidazo[4,5-c]cinnolin-2(3H)-one], the concentration for half-maximal inhibition (IC50) at ATM (read-out: ATM IC50) is 0.0028 µM; in experiment [1], 0.015 µM.

Molecule `C[C@@H](OCCN1CC[C@@H](S(C)(=O)=O)C1)c1ccc(-c2ccc3nnc4c(c3c2)n(C2CCOCC2)c(=O)n4C)cn1` [Example 129, 3-methyl-8-(6-((R)-1-(2-((R)-3-(methylsulfonyl)pyrrolidin-1-yl)ethoxy)ethyl)pyridin-3-yl)-1-(tetrahydro-2H-pyran-4-yl)-1H-imidazo[4,5-c]cinnolin-2(3H)-one] came in with an IC50 against ATM of 0.075 µM.

In the case of `CC(C)n1c(=O)n(C)c2nnc3cc(F)c(-c4ccc([C@@H](C)OCCN5CCC6(CC6)C5)nc4)cc3c21` [Example 135, (R)-8-(6-(1-(2-(5-azaspiro[2.4]heptan-5-yl)ethoxy)ethyl)pyridin-3-yl)-7-fluoro-3-methyl-1-(tetrahydro-2H-pyran-4-yl)-1H-imidazo[4,5-c]cinnolin-2(3H)-one], the IC50 on ATM (read-out: ATM IC50) came out at 0.0044 µM.

Molecule `C[C@@H](OCCN1CCC2(CC2)C1)c1ccc(-c2cc3c(cc2F)nnc2c3n(C3CCOCC3)c(=O)n2C)cn1` [Example 148, (R)-8-(6-(1-(2-(5-azaspiro[2.4]heptan-5-yl)ethoxy)ethyl)pyridin-3-yl)-7-fluoro-3-methyl-1-(tetrahydro-2H-pyran-4-yl)-1H-imidazo[4,5-c]cinnolin-2(3H)-one] registered an IC50 at ATM of 0.013 µM.

(Values after US20240207263A1, “SELECTIVE MODULATORS OF ATAXIA […] MUTATED (ATM) KINASE AND USES THEREOF” (priority 2021, published 2024).)
